Measurements taken from ChEMBL document CHEMBL1154758, “The coumarin-binding site in carbonic anhydrase accommodates structurally diverse inhibitors: the antiepileptic lacosamide as an example and lead molecule for novel classes of carbonic anhydrase inhibitors” (J Med Chem, 2010).

Molecular target: Carbonic anhydrase 2 (Homo sapiens, UniProt P00918)
Assay: Inhibition of human recombinant CA2 by stopped flow CO2 hydrase assay

`COC[C@@H](NC(C)=O)C(=O)NCc1ccccc1` [LACOSAMIDE] showed a Ki of 331 nM.
